# Measured values taken from the SangsterLogP compilation.
# Assay: method code SF, from Hansch, C. & Leo, A. (1987). Log P database [Dataset]. Pomona College Medicinal Chemistry Project.
row,Compound,logP
1,CC[C@]1(O)C[C@@H]2CN(CCc3c([nH]c4ccccc34)[C@@](C(=O)OC)(c3cc4c(cc3OC)N(C)[C@H]3[C@@](O)(C(=O)OC)[C@H](OC(C)=O)[C@]5(CC)C=CCN6CC[C@]43[C@@H]65)C2)C1,3.72
2,COc1ccc([N+](=O)[O-])cc1,2.05
3,c1ccc2c(c1)Nc1ccccc1O2,3.85
4,OCc1ccco1,0.28
5,O=Cc1ccccc1[N+](=O)[O-],1.74
6,OC(C(F)(F)F)C(F)(F)F,1.66
7,CC(O)COC(C)CO (configuration not stated),-0.67
8,O=[N+]([O-])OCC(CO[N+](=O)[O-])O[N+](=O)[O-],1.62

# Results, then the molecule that gave them:
row,logP,Compound
1,0.37,C=CN1CCCC1=O
2,1.16,C[C@]12C=CC(=O)C=C1CC[C@H]1[C@@H]3C[C@@H](O)[C@](O)(C(=O)CO)[C@@]3(C)C[C@H](O)[C@@]12F
3,-0.24,O[C@@H]([C@H](O)[C@H](O)CBr)[C@H](O)CBr
4,1.38,O=c1ccoc2ccccc12
